Laboratory results reported in patent US20230022157A1 (Achillion Pharmaceuticals, Inc., priority 2018, published 2023).

Sequences of proteins named here, by UniProt entry; tags and fusion partners are left off. Residues count along the entry.
UniProt P00746, 26-253 limits assumed: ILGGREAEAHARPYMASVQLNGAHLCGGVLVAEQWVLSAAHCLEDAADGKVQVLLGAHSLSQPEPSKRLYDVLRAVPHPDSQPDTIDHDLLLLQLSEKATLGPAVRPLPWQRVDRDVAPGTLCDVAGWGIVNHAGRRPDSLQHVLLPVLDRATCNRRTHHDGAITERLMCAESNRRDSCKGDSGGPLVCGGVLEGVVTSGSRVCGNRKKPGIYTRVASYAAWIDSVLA

Biological target: Human Factor D (Homo sapiens, UniProt P00746)
Test: Human Factor D Assay
Settings: read-out: IC50 (Stars); Human Factor D 80 nM, substrate Z-L-Lys-SBzl; Table 2

Structure (SMILES)	IC50
CCC(C)(C)CNC(=O)[C@@H]1C[C@@]2(C)C[C@H]2N1C(=O)Cn1nc(C(C)=O)c2cc(-c3cnc(C)nc3)cc(C)c21	< 1000 nM
CCC(=O)c1ncc(-c2cc(C)c3c(c2)c(C(C)=O)nn3CC(=O)N2[C@H](C(=O)Nc3nc(Br)ccc3C)C[C@@]3(C)C[C@@H]23)cn1	< 1000 nM
CC(=O)c1nn(CC(=O)N2[C@H](C(=O)NCC(C)(C)OC(C)C)C[C@@]3(C)C[C@@H]23)c2c(C)cc(-c3cnc(C)nc3)cc12	> 10000 nM
